{"source": "patent US20160010138A1", "about": "“RAPID DETERMINATION OF MICROBIAL DROWTH AND ANTIMICROBIAL SUSEPTABILITY” (priority 2013, published 2016)", "tested_on": "Klebsiella pneumoniae (KP) clinical isolates", "assay": "KPC assay: growth in ertapenem with and without boronic acid inhibitor (MADM)", "format": "cell-based", "conditions": "KPC-positive isolate; ETP 16 μg/mL + APB 300 μg/mL (FIG. 20B vs 20C)", "experimental": "A MADM system was used with a purpose-built 32-channel disposable fluidic cassette (FIG. 4A). Cassette flowcells (FIG. 4B) had transparent top and bottom surfaces to allow microscope imaging. The bottom surface was coated with poly-L-lysine to immobilize live bacteria.\nClinical isolates of Pseudomonas aeruginosa (PA), Acinetobacter baumannii (AB), and Klebsiella pneumoniae (KP) were tested. Test agents included amikacin (AN), imipenem (IMP), ceftazidime (CAZ), ertapenem (ETP), aminophenylboronic acid (APB), and benzo(b)thiophene-2-boronic acid (BTB). The boronic acids inhibit the KPC enzyme as well as AmpC. Test results are expressed as nonsusceptible (NS) or susceptible (S).\nIsolates were grown on blood agar, suspended colonies in tryptic soy broth for 2 hours, then centrifuged and resuspended log-phase bacteria in low ionic strength electrokinetic buffer.\nMADM system analysis was performed using a 32-channel disposable fluidic cassette (FIG. 4A) to measure growth of immobilized bacteria. […]\n10 μL aliquots of 5E+7 CFU/mL were pipetted into separate flowcells for each isolate and test condition. […] The system measured growth at 10-minute intervals. […] Growth was evaluated, interpreting results for PA, AB, and KP-ETP as NS if growth had not arrested within 3 hours. […]"}
{"smiles": "Nc1cccc(B(O)O)c1", "note": "[APB, aminophenylboronic acid]", "values": [{"measurement": "difference between ETP alone and ETP+APB", "value": "enzyme inhibition and decreased resistance"}]}
